{"source": "patent US8792095B2", "about": "“Methods and apparatus for transport of airborne molecules using an active cyclical vapor/liquid exchange” (dated 2014)", "key": {"[1]": {"details": "partitioning into water; cited from earlier work"}, "[2]": {"details": "gas-phase saturation value; cited from earlier work"}, "[3]": {"assay": "Equilibrium vapor pressure / saturated vapor concentration", "details": "relative to DNT"}, "[4]": {"assay": "Partitioning properties into water (Henry's constant, equilibrium aqueous concentration)"}}, "data": [{"smiles": "Cc1ccccc1", "values": [{"measurement": "Henry's Const", "setting": "[1]", "result": "5e−3", "unit": "Atm m^3/mol"}, {"measurement": "Equilibrium Vapor pressure 300k", "setting": "[2]", "result": "3e8", "unit": "ppb"}, {"measurement": "vapor pressure compared with DNT", "setting": "[3]", "result": "six orders of magnitude higher"}, {"measurement": "Partitioning (relative to Toluene)", "setting": "[4]; into water, relative to toluene", "result": 1}, {"measurement": "Equilibrium aqueous concentration", "setting": "[4]; water, equilibrium (saturation in liquid phase)", "result": 50, "unit": "mM"}]}]}
